# Measured values: US5679805A, “Photochromic spironaphthopyran compounds” (Vision-Ease Lens, Inc., priority 1995, dated 1997)
# Test: maximum absorption wavelength of chloroform-dissolved photochromic compounds irradiated with ultraviolet light
# Format: physicochemical
# Conditions: maximum wavelength of 350 nanometers
smiles,measurement,value
"COc1ccc2c3c(ccc2c1)OC(c1ccccc1)(c1ccccc1)C=C3 [Comparative Example 1, 3,3-diphenyl-8-methoxy-3H-naphtho[2,1-b]pyran, reference compound]",maximum absorption wavelength λmax,472
